Source: PubChem
Compounds with a hit are over-represented: about 16% of the library has one in this group of screens.
DT40 TDP1 CPT – DT40-hTDP1 cell growth loss with CPT | Potency, µM (highest dose often 46.2 µM), for inactives: top-dose activity change, negative = growth inhibition, actives largely listed as inhibitors | 12% of 420,000 active | chicken DT40 Tdp1-/-;hTDP1 cells + 20 nM CPT, ATP luminescence, 48 h; further: potency means the concentration at half of the fitted maximal effect; on the % scale 0 is the no-effect control and ±100 the full control effect; nearly all actives have a fitted effect of over 55% in size
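Chicken DT40 Tdp1-/- cells complemented with human TDP1, 400 cells/well, exposed to compounds plus 20 nM camptothecin for at least 48 h at 37 C; viability read as ATP content by CellTiter-Glo luminescence.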
miR-21 reporter – raises the signal of a miR-21 reporter | Potency, µM (doses to about 38.3 µM), for inactives: top-dose reporter change, positive = more light | HeLa miR-21 FLuc reporter, luciferase, 48 h | AID 2288 | 340,000 tested, under 10 active; active = well fitted rising curve with a large enough effect; inconclusive = small, poorly fitted or top-dose-only effect; inactive = no such curve, though single readings can be large or run the other way;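 also: % of control where 0% means no effect; miR-21 action dims this reporter so a rising signal means less miR-21 action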
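HeLa miR-21-FLuc reporter line, endogenous miR-21; 2000 cells/well in DMEM/10% FBS; compound titration up to ~40uM final, 48 h, 37 degree Celsius; luciferase detection reagent, 15 min lysis, CCD luminescence.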
uPA surface inh – cell surface uPA generation inhibition; 0.31% of 330,000 active; Potency, µM (doses to about 38.3 µM), for the others: at the highest dose activity change, negative = inhibition, actives largely listed as inhibitors; cell surface uPA generation assay, qHTS; active means well fitted inhibition curve with a large enough effect; inconclusive means small, poorly fitted or top-dose-only effect; inactive means no such curve, though single readings can be large or run the other way; tested in mouse RAW 264.7 cells; further: potency means the concentration at half of the fitted maximal effect; on the % scale 0 is the no-effect control and ±100 the full control effect; nearly all actives have a fitted effect of over 55% in size
TDP1 block – blocks human tyrosyl-DNA phosphodiesterase 1; Q9NUW8; recombinant TDP1, AlphaScreen DNA substrate cleavage; Potency, µM (top dose mostly 130 µM), for the others: at the highest dose activity change, negative = inhibition, usual class: inhibitors; 0.28% of 350,000 active; AID 485290; further: potency means the concentration at half of the fitted maximal effect; on the % scale 0 is the no-effect control and ±100 the full control effect; nearly all actives have a fitted effect of over 40% in size
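Steps: enzyme plus compound, 15 min RT; add biotin/phosphotyrosine-FITC oligonucleotide (15 nM final), react 5 min; add donor/acceptor beads (10 ug/ml final), 10 min; read AlphaScreen. Tdp1 at 1 nM final.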
TDP1 cell noCPT – qHTS for Inhibitors of human tyrosyl-DNA phosphodiesterase 1 (TDP1): qHTS in cells in absence of CPT. Potency, µM (doses to about 46.2 µM), inactives show top-dose activity change, negative = growth inhibition, most hits filed as inhibitors. 15% of 420,000 active. DT40 Tdp1-/- hTDP1 cells, no CPT, ATP luminescence, 48 h; further: potency means the concentration at half of the fitted maximal effect; on the % scale 0 is the no-effect control and ±100 the full control effect; nearly all actives have a fitted effect of over 55% in size
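Luminescent ATP content (CellTiter-Glo) served as the growth readout. Knockout chicken DT40 cells expressing human TDP1 were exposed to compounds without camptothecin for a minimum 48 hr at 37 °C.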
Active calls of the source: *. Unless noted, the call rests on the fitted dose curve; in most records, active means well fitted curve in the direction sought with a large enough effect; inconclusive means small, poorly fitted or top-dose-only effect, or another doubt; inactive means no such curve, though single readings can be large; an effect the other way counts as inactive or inconclusive.

`CCc1cc(C(=O)N2CCCC(C(=O)c3cccc4ccccc34)C2)n(C)n1` (stereo not given) gave DT40 TDP1 CPT inconclusive, miR-21 reporter 13%, uPA surface inh -1%, TDP1 block 3% and TDP1 cell noCPT 15µM*.
Screening O=C(c1cccc2ccccc12)C1CCCN(C(=O)CCCn2cncn2)C1 (stereo not given) returned DT40 TDP1 CPT -22%, miR-21 reporter -7%, uPA surface inh 2%, TDP1 block 0% and TDP1 cell noCPT 16µM*.
Screening Cc1cc(C(=O)N2CCCC(C(=O)c3cccc4ccccc34)C2)nc(C)n1 (stereo not given) returned DT40 TDP1 CPT inconclusive, miR-21 reporter -12%, uPA surface inh -3% and TDP1 cell noCPT inconclusive.
For O=C(c1cccc2ccccc12)C1CCCN(C(=O)c2ccc(N3CCOCC3)cc2)C1 (stereo not given) the results were DT40 TDP1 CPT inconclusive, miR-21 reporter -7%, uPA surface inh -6%, TDP1 block 6% and TDP1 cell noCPT 23µM*.
`COc1c(C)cc(C(=O)C2CCCN(C(=O)CCCn3cncn3)C2)cc1C` (stereo not given) gave DT40 TDP1 CPT -12%, miR-21 reporter 4%, uPA surface inh 1% and TDP1 cell noCPT -4%.
`CCn1nc(C)cc1C(=O)N1CCCC(C(=O)c2ccccc2SC)C1` (stereo not given) gave DT40 TDP1 CPT 16µM*, miR-21 reporter 10%, uPA surface inh -2%, TDP1 block 3% and TDP1 cell noCPT 18µM*.
Screening Cc1cc(NC(=O)CCC(=O)N(c2ccccc2)C(C(=O)NC(C)(C)C)c2ccccc2Cl)no1 (stereo not given) returned DT40 TDP1 CPT 0%, miR-21 reporter 2%, uPA surface inh 9%, TDP1 block 13% and TDP1 cell noCPT -20%.
COc1cccc(/C=N/NC(=O)c2nnn(-c3nonc3N)c2C(C)C)c1OCc1ccc(F)cc1 was read as DT40 TDP1 CPT inconclusive, miR-21 reporter 21%, uPA surface inh 1%, TDP1 block 3% and TDP1 cell noCPT inconclusive.
`Cc1csc(-c2cnn(-c3ccccc3)c2NC(=O)c2cccc(F)c2)n1` gave DT40 TDP1 CPT 1%, miR-21 reporter -13%, uPA surface inh 8%, TDP1 block 4% and TDP1 cell noCPT -21%.
COC(=O)CCC(NS(=O)(=O)OCC(Cl)(Cl)Cl)c1ccccc1 (stereo not given) was read as DT40 TDP1 CPT -28%, miR-21 reporter -8%, uPA surface inh -12% and TDP1 cell noCPT inconclusive.
`CC(C)CC(NS(=O)(=O)OCC(Cl)(Cl)Cl)c1ccccc1` (stereo not given) gave DT40 TDP1 CPT inconclusive, miR-21 reporter 10%, uPA surface inh 6% and TDP1 cell noCPT 16µM*.
For CCOC(=O)Cn1c(=O)c(-c2ccccc2NC)nc2ccccc21 the results were DT40 TDP1 CPT -28%, miR-21 reporter -1%, uPA surface inh 4%, TDP1 block 8% and TDP1 cell noCPT inconclusive.
`COc1ccc(C2=NOC(COc3ccc4c(C)cc(=O)oc4c3)C2)c(OC)c1` (stereo not given) gave DT40 TDP1 CPT 4.1µM*, miR-21 reporter 13%, uPA surface inh -8%, TDP1 block 3% and TDP1 cell noCPT 5.2µM*.
`COc1ccccc1C1=NOC(COc2ccc3c(C)cc(=O)oc3c2)C1` (stereo not given) gave DT40 TDP1 CPT 0.82µM*, miR-21 reporter 26%, uPA surface inh -16%, TDP1 block 1% and TDP1 cell noCPT 0.82µM*.
Cc1nc(N2CCCC2)c2c(C(=O)Nc3ccc(C)c(Cl)c3)c(C)oc2n1 was read as DT40 TDP1 CPT inconclusive, miR-21 reporter -8%, TDP1 block 2% and TDP1 cell noCPT inconclusive.
C=CCc1ccc(OCCOCCOc2cccc3cccnc23)c(OC)c1 was read as DT40 TDP1 CPT inconclusive, miR-21 reporter -5%, uPA surface inh 5%, TDP1 block 5% and TDP1 cell noCPT 29µM*.
Screening C/C=C/c1ccc(OCCOCCOc2cccc3cccnc23)c(OC)c1 returned DT40 TDP1 CPT 23µM*, miR-21 reporter 3%, uPA surface inh 2%, TDP1 block 3% and TDP1 cell noCPT 15µM*.
Screening C=CCc1ccc(OCCOc2cccc3cccnc23)c(OC)c1 returned DT40 TDP1 CPT inconclusive, miR-21 reporter -25%, uPA surface inh -2%, TDP1 block 3% and TDP1 cell noCPT inconclusive.
`C/C=C/c1ccc(OCCOc2cccc3cccnc23)c(OC)c1` gave DT40 TDP1 CPT inconclusive, miR-21 reporter -42%, uPA surface inh -2%, TDP1 block -1% and TDP1 cell noCPT inconclusive.
For COC(=O)c1sc(NC(=O)CN2CCN(c3cccc(Cl)c3)CC2)c(C(=O)OC)c1C the results were DT40 TDP1 CPT 29µM*, uPA surface inh -14% and TDP1 cell noCPT 33µM*.
COC(=O)c1[nH]c2ccccc2c1NC(=O)CN1CCCCCC1 was read as DT40 TDP1 CPT inconclusive, miR-21 reporter -10%, uPA surface inh -7%, TDP1 block -1% and TDP1 cell noCPT inconclusive.
For COC(=O)c1[nH]c2ccccc2c1NC(=O)CN1CCN(c2cccc(Cl)c2)CC1 the results were DT40 TDP1 CPT 26µM*, miR-21 reporter 5%, uPA surface inh -11%, TDP1 block 5% and TDP1 cell noCPT 16µM*.
Cc1c(NC(=O)CN2CCN(c3cccc(Cl)c3)CC2)c(=O)n(-c2ccccc2)n1C was read as DT40 TDP1 CPT inconclusive, miR-21 reporter 1%, uPA surface inh -7%, TDP1 block 4% and TDP1 cell noCPT inconclusive.
O=c1c2c([nH]c3ccccc13)CCCC2 was read as DT40 TDP1 CPT inconclusive, miR-21 reporter -18%, uPA surface inh -2%, TDP1 block 7% and TDP1 cell noCPT 8.2µM*.
For Cc1c2c(nc3ccccc13)CCC(C(C)(C)C)C2 (stereo not given) the results were DT40 TDP1 CPT inconclusive, miR-21 reporter -41%, uPA surface inh -2%, TDP1 block 2% and TDP1 cell noCPT inconclusive.
O=c1c2c([nH]c3ccccc13)C(=C1CCCC1)CC2 was read as DT40 TDP1 CPT 23µM*, miR-21 reporter 0%, uPA surface inh 1%, TDP1 block inconclusive and TDP1 cell noCPT 21µM*.
CC(C)(C)C1CCc2[nH]c3ccccc3c(=O)c2C1 (stereo not given) was read as DT40 TDP1 CPT 23µM*, miR-21 reporter -36%, uPA surface inh 0%, TDP1 block 4% and TDP1 cell noCPT 21µM*.

3 records picked at random from the list so far, as already listed:
CC(C)(C)C1CCc2[nH]c3ccccc3c(=O)c2C1 (stereo not given) was read as DT40 TDP1 CPT 23µM*, miR-21 reporter -36%, uPA surface inh 0%, TDP1 block 4% and TDP1 cell noCPT 21µM*.
For COC(=O)c1[nH]c2ccccc2c1NC(=O)CN1CCN(c2cccc(Cl)c2)CC1 the results were DT40 TDP1 CPT 26µM*, miR-21 reporter 5%, uPA surface inh -11%, TDP1 block 5% and TDP1 cell noCPT 16µM*.
Cc1c(NC(=O)CN2CCN(c3cccc(Cl)c3)CC2)c(=O)n(-c2ccccc2)n1C was read as DT40 TDP1 CPT inconclusive, miR-21 reporter 1%, uPA surface inh -7%, TDP1 block 4% and TDP1 cell noCPT inconclusive.
